Measured values as given in US20240301023A1 (priority 2020, published 2024).

By UniProt entry, the sequences of proteins in these tests, tags left out. Where a name states a change or a piece, a line headed by the entry shows the natural chain unless it says otherwise.
UniProt P41145: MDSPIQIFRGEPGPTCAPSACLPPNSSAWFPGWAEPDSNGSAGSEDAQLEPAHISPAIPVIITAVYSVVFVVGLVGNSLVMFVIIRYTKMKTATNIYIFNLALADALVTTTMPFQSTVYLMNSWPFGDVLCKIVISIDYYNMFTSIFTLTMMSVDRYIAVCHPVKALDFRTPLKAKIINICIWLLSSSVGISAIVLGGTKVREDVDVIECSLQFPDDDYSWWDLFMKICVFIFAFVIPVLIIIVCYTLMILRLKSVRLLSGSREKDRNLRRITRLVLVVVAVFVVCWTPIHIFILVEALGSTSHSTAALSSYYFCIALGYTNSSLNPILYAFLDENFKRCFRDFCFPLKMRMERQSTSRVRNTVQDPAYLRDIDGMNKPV

Target: KOR (Homo sapiens, UniProt P41145)
Test: biochemical
Type: binding

Compound `Oc1ccc2c3c1O[C@H]1c4[nH]c5ccccc5c4C[C@@]4(O)[C@@H](C2)N(CC2CC2)CC[C@]314` [Naltrindole, reference compound] has a Kd of 0.8 nM.
